1 molecule from ChEMBL document CHEMBL4138078, “Structure-based virtual screening and optimization of modulators targeting Hsp90-Cdc37 interaction” (Eur J Med Chem, 2017) can be followed below.

The species named for this experiment is Homo sapiens. Briefly: Inhibition of full length His-tagged HSP90/GST-tagged Cdc37 (unknown origin) interaction at 100 uM after 1 hr by HTRF assay relative to control. In outline:
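HTRF assay using His-tagged full-length Hsp90 and GST-tagged Cdc37 M, each 250 nM final, in PBS with an extra 400 mM KF, pH 7.4. Compound incubated 1 h at 37 °C. Anti-GST-Cryptate and anti-6His-XL665 then added, 0.5 h at 37 °C. Ex 320 nm; ratio = (665/620 nm) × 10000. No-compound negative control and reagent-only blank.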

Turning to `COc1cc(C(=O)OCCN2C(=O)C3C(N=C(N4CCN(C[C@H](O)CO)CC4)N3C)N(C)C2=O)cc(OC)c1OC` (stereo partly specified), the inhibition stood at 12.6%.
